Only a part is listed here, and it is no random draw. Activity calls are given as the source filed them.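 How the source made its calls: active means inhibition above 50%, about 3 SD of the inhibition seen with non-fluorescent compounds; inactive means the rest.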
Assay: GST-fluorescein capture on glutathione beads, confirmation, artefact control for arrestin-AP2 inhibitor project, biochemical, cherry pick 1, flow cytometry (AID 588338);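 further: fluorescein maleimide labelled GST captured on 4 micron glutathione beads; higher means more loss of bead fluorescence from quenching or blocked binding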
Conditions: GST-fluorescein binding to GSH beads, fluorescence, counter-screen; at 10 µM; stronger effect = higher value

Row | Compound | inhibition
1 | COC(=O)c1cc2c(s1)N=C(c1ccccc1)N(C)P2(=O)N1CCOCC1 (stereo unspecified) | inactive: 6.38%

— PubChem BioAssay AID588338 (NMMLSC, 2011)
